Legend:
[1] = tested on: IL-6; assay: ELISA of IL-6 in hippocampus; type: in vivo, ICR mice; conditions: 24 h after i.v. (LPS 24 h); Ave.
Description: (§1) Tissues were sectioned at a […] thickness.

[2] = tested on: TNF-α; conditions: 24 h after i.v. (LPS 24 h); Ave.
Procedure: as §1
Blood samples were collected for determination of red blood cell count, white blood cell count, haemoglobin, haematocrit, mean corpuscular volume, mean corpuscular haemoglobin, mean corpuscular haemoglobin concentration and platelet count (XFA6030, Perlong Medical Inc., China). Hippocampus was dissected out, rinsed in ice-cold PBS thoroughly, weighted and immediately frozen in liquid nitrogen. Tissues were cut into small pieces and homogenized in 1 mL ice-cold PBS with a glass homogeniser and sonicated with an ultrasonic cell disrupter to break the cell membranes. Homogenates were centrifuges for 5 min at 5,000 × g and supernatants were assayed immediately for quantitative determination of TNF-α, IL-6, IL-1β, Iba-1 and GFAP by corresponding ELISA kits, respectively in accordance with manufacturer’s instructions.

Compound | IL-6 in hippocampus (Figure 6f) [1] | TNF-α in hippocampus (Figure 6e) [2]
CC[C@H](C)[C@H](NC(=O)[C@H](CC(N)=O)NC(=O)[C@H](Cc1c[nH]cn1)NC(=O)[C@@H](NC(=O)[C@@H]1CCCN1C(=O)[C@H](CCCNC(=N)N)NC(=O)[C@H](Cc1ccc(O)cc1)NC(=O)CNC(=O)[C@H](CS)NC(=O)c1ccc2c(c1)C(=O)OC21c2ccc(O)cc2Oc2cc(O)ccc21)C(C)C)C(=O)N[C@@H](CCCNC(=N)N)C(=O)NCC(=O)N[C@@H](Cc1c[nH]cn1)C(=O)N[C@@H](Cc1c[nH]c2ccccc12)C(=O)N[C@@H](C)C(=O)N1CCC[C@H]1C(=O)NCC(=O)O [FAM-CGY, 5-FAM-CGYRPVHNIRGHWAPG] | 5.89 | 
lipopolysaccharide from Escherichia coli O55:B5 [LPS] |  | 18.56
